Compounds with a hit are over-represented: about 0.7% of the library has one in this group of screens.
GIV Gai3 FP = inhibitors of GIV peptide binding to Galpha-i3, primary screen, biochemical, fluorescence polarization, FITC-GIV GBA peptide, rat Galphai3 | 90 min; active compounds read low; scaled: aluminum fluoride 0%, vehicle 100% | percent of control (FP), % (test concentration not listed) | hit rate 0.42% among 210,000;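 active = replicate mean at 85% of control or lower, very high polarization wells dropped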;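 also: lower values mean more displacement of the GIV peptide from Galpha-i3; wells of about 15 µL received 100 nL stock; the first replicate is given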
HCMV NEC inh = disrupts HCMV UL50-UL53 complex binding. inhibition, % (no concentration beside the values). AID 1918969. 0.15% of 190,000 active. HTRF UL50-UL53 interaction, normalized percent inhibition; in the data active = inhibition above about 27%, passing the limit was not always enough
Sa growth inh = inhibitors of Staphylococcus aureus growth at 42 °C | S. aureus RN4220 growth, OD600, 20 h; active compounds read low | relative growth, % (test concentration not listed) | 0.53% of 170,000 active;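 active = relative growth at most 50% at the other temperature and 20+ points below 30 °C, or under 10% at both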
Numbers stand for hits.

`O=C(NC(=O)c1ccccc1O)c1cccs1` gave GIV Gai3 FP inactive, HCMV NEC inh inactive and Sa growth inh inactive.
Screening Cc1ccc(O)c(C(=O)CC(=O)c2cccs2)c1 returned HCMV NEC inh inactive and Sa growth inh 6.4.
Cc1ccc(-n2ccc(=O)c(-c3nc(-c4cccc(C)c4)no3)n2)cc1 was read as GIV Gai3 FP inactive.
`Cn1c(=O)c2nc3ccc(N)cc3nc2n(C)c1=O` gave GIV Gai3 FP 18.9.
`Cn1c(=O)c2nc3ccc(NC(=O)c4ccccc4)cc3nc2n(C)c1=O` gave GIV Gai3 FP inactive.
For c1ccc(-c2nc3ccccn3c2NC2CCCC2)nc1 the results were GIV Gai3 FP inactive, HCMV NEC inh inactive and Sa growth inh -0.1.
Screening c1csc(-c2nc3cnccn3c2NC2CCCCC2)c1 returned GIV Gai3 FP inactive and Sa growth inh inactive.
`COc1ccccc1NC(=O)NCC(c1ccco1)N(C)C` (stereo not drawn) gave HCMV NEC inh inactive and Sa growth inh inactive.
`O=C(/C=C/C(=O)c1ccc2ccccc2c1)c1ccccc1` gave HCMV NEC inh inactive and Sa growth inh -0.4.
Screening O=C(O)/C=C/C(=O)c1ccccc1 returned GIV Gai3 FP inactive, HCMV NEC inh inactive and Sa growth inh inactive.
`CS(=O)c1sc(C(=O)OCc2ccccc2)c2c1C(=O)CC(C)(C)C2` (stereo not drawn) gave GIV Gai3 FP inactive, HCMV NEC inh inactive and Sa growth inh -0.7.
For CS(=O)c1sc(Br)c2c1C(=O)CC(C)(C)C2 (stereo not drawn) the results were GIV Gai3 FP inactive, HCMV NEC inh inactive and Sa growth inh inactive.
Screening CC1(C)S[C@@H]2[C@H](NC(=O)[C@@H](N)c3ccc(O)cc3)C(=O)N2[C@H]1C(=O)O returned HCMV NEC inh inactive and Sa growth inh -0.4.
CC1(C)S[C@@H]2C(NC(=O)C(N)c3ccc(O)cc3)C(=O)N2C1C(=O)O (stereo partly drawn) was read as HCMV NEC inh inactive.
CC1(C)S[C@@H]2[C@H](NC(=O)[C@H](NC(=O)N3CCNC3=O)c3ccccc3)C(=O)N2[C@H]1C(=O)O was read as HCMV NEC inh inactive.
`CC1(C)S[C@@H]2[C@H](NC(=O)[C@H](NC(=O)N3CCNC3=O)c3ccccc3)C(=O)N2C1C(=O)O` (stereo partly drawn) gave HCMV NEC inh inactive and Sa growth inh -1.3.
Screening O=c1oc2cc(OCc3nn[nH]n3)ccc2c2c1CCC2 returned GIV Gai3 FP inactive and HCMV NEC inh inactive.
Screening COC(=S)Nc1cccc(C(F)(F)F)c1 returned GIV Gai3 FP inactive, HCMV NEC inh inactive and Sa growth inh inactive.
For CC(C)(C)NC(=S)Nc1cccc(C(F)(F)F)c1 the results were HCMV NEC inh inactive and Sa growth inh 0.1.
CC(C)c1ccc(NC(=S)Nc2cccc(C(F)(F)F)c2)cc1 was read as GIV Gai3 FP inactive, HCMV NEC inh inactive and Sa growth inh -2.1.
Screening CNC(=S)Nc1cccc(C(F)(F)F)c1 returned GIV Gai3 FP inactive, HCMV NEC inh inactive and Sa growth inh inactive.
Clc1ccc(C2Oc3ccc(Br)cc3C3CC(c4cccs4)=NN32)cc1 (stereo not drawn) was read as GIV Gai3 FP inactive and HCMV NEC inh inactive.
CN(C)CC1COc2ccccc2C1=O (stereo not drawn) was read as GIV Gai3 FP inactive, HCMV NEC inh inactive and Sa growth inh -0.4.
`O=C1c2ccccc2OCC1c1ccccc1` (stereo not drawn) gave GIV Gai3 FP inactive, HCMV NEC inh inactive and Sa growth inh inactive.
CC(C)(C)C1CCc2nc(NC(=O)c3cccc(Cl)c3)sc2C1 (stereo not drawn) was read as GIV Gai3 FP inactive, HCMV NEC inh inactive and Sa growth inh 12.6.
For CC(C)(C)C1CCc2nc(NC(=O)c3ccc([N+](=O)[O-])cc3)sc2C1 (stereo not drawn) the results were GIV Gai3 FP inactive, HCMV NEC inh inactive and Sa growth inh inactive.
Screening OCC#Cc1ccc(-c2cccnc2)s1 returned GIV Gai3 FP inactive, HCMV NEC inh inactive and Sa growth inh inactive.
COc1ccc(OC)c(NC(=O)N2CCCN(c3nc4cc(Br)ccc4n4cccc34)CC2)c1 was read as GIV Gai3 FP inactive.
Nc1nnc2cc(C(=O)c3cc(F)ccc3O)cnn12 was read as HCMV NEC inh inactive and Sa growth inh inactive.
For Cc1ccc(O)c(C(=O)c2cnn3c(N)nnc3c2)c1 the results were HCMV NEC inh 50.7 and Sa growth inh inactive.
For CCc1ccc(C2N3CC4(CC)CN2CC(CC)(C3)C4O)cc1 (stereo not drawn) the results were GIV Gai3 FP inactive and HCMV NEC inh inactive.
Screening COc1ccc(C2CC(=O)C(C=NCCN3CCNCC3)=C(O)C2)cc1 (stereo not drawn) returned GIV Gai3 FP inactive, HCMV NEC inh inactive and Sa growth inh inactive.
